The data set is described as follows: in vitro. The note with it: monkey, Vero cells.

The structures appear in SMILES notation.

On to `O=[N+]([O-])c1cn2c(n1)OC[C@@H](OCc1ccc(N3CCCCC3)c(F)c1)C2`, for which the selectivity ratio was greater than 1000.

These data come from ChEMBL document CHEMBL3745652, “Synthesis and evaluation of pretomanid (PA-824) oxazolidinone hybrids” (Bioorg Med Chem Lett, 2016).
